Experimental data as given in ChEMBL document CHEMBL3286203, “Reactive oxygen species (ROS) inducible DNA cross-linking agents and their effect on cancer cells and normal lymphocytes” (J Med Chem, 2014).

Columns and labels:
[1] = Induction of apoptosis in human CLL cells at 10 uM after 24 hrs by Annexin/propidium iodide staining-based assay (reference value: 95%)
[2] = Induction of apoptosis in human CLL cells at 10 uM after 48 hrs by Annexin/propidium iodide staining-based assay (reference value: 91%)
HOP-62 = assay: Cytotoxicity against human HOP62 cells after 48 hrs by SRB assay; type: functional
Outline: (§1)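 GI50 was determined in the NCI Developmental Therapeutics Program in vitro 60-line cancer screen. Tumour lines were maintained in RPMI 1640 containing 5% FBS and 2 mM L-glutamine. Cells were inoculated at 5000–40 000 cells/well according to each line's doubling time before drug exposure.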

HOP-92 = assay: Cytotoxicity against human HOP92 cells after 48 hrs by SRB assay; type: functional; outline: as §1
NCI-H226 = assay: Cytotoxicity against human NCI-H226 cells after 48 hrs by SRB assay; type: functional
Outline: (§2)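 GI50 from the NCI Developmental Therapeutics Program in vitro human tumor cell screen. Cell lines were maintained in RPMI 1640 with 5% fetal bovine serum and 2 mM L-glutamine. They were seeded at 5000–40 000 cells/well, depending on each line's doubling time, then exposed to drug for 48 h at 37 °C, 5% CO2.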

NCI-H23 = assay: Cytotoxicity against human NCI-H23 cells after 48 hrs by SRB assay; type: functional; outline: as §2
NCI-H322M = assay: Cytotoxicity against human NCI-H322M cells after 48 hrs by SRB assay; type: functional; outline: as §2
NCI-H460 = assay: Cytotoxicity against human NCI-H460 cells after 48 hrs by SRB assay; type: functional; outline: as §2
NCI-H522 = assay: Cytotoxicity against human NCI-H522 cells after 48 hrs by SRB assay; type: functional; outline: as §2
COLO 205 = assay: Cytotoxicity against human COLO205 cells after 48 hrs by SRB assay; type: functional; outline: as §1
HCC 2998 = assay: Cytotoxicity against human HCC2998 cells after 48 hrs by SRB assay; type: functional; outline: as §1
HCT-116 = assay: Cytotoxicity against human HCT116 cells after 48 hrs by SRB assay; type: functional; outline: as §1
[3] = Cytotoxicity against human HCT15 cells after 48 hrs by SRB assay; type: functional, HCT-15; outline: as §1
HT-29 = assay: Cytotoxicity against human HT-29 cells after 48 hrs by SRB assay; type: functional; outline: as §1
KM12 = assay: Cytotoxicity against human KM12 cells after 48 hrs by SRB assay; type: functional; outline: as §1
SW-620 = assay: Cytotoxicity against human SW620 cells after 48 hrs by SRB assay; type: functional
Outline: (§3)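 GI50 from the NCI-60 DTP human tumour line screen. Lines grown in RPMI 1640 with 5% fetal bovine serum and 2 mM L-glutamine, plated at 5000–40 000 cells/well according to doubling time. Incubated 48 h at 37 °C, 5% CO2.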

SF-268 = assay: Cytotoxicity against human SF268 cells after 48 hrs by SRB assay; type: functional; outline: as §2
SF-295 = assay: Cytotoxicity against human SF295 cells after 48 hrs by SRB assay; type: functional; outline: as §2
SF-539 = assay: Cytotoxicity against human SF539 cells after 48 hrs by SRB assay; type: functional; outline: as §2
SNB-19 = assay: Cytotoxicity against human SNB19 cells after 48 hrs by SRB assay; type: functional; outline: as §3
SNB-75 = assay: Cytotoxicity against human SNB75 cells after 48 hrs by SRB assay; type: functional; outline: as §3
U-251 = assay: Cytotoxicity against human U251 cells after 48 hrs by SRB assay; type: functional; outline: as §3
LOX IMVI = assay: Cytotoxicity against human LOXIMVI cells after 48 hrs by SRB assay; type: functional; outline: as §1
Malme-3M = assay: Cytotoxicity against human MALME-3M cells after 48 hrs by SRB assay; type: functional; outline: as §1
M14 = assay: Cytotoxicity against human M14 cells after 48 hrs by SRB assay; type: functional; outline: as §1
MDA-MB-435 = assay: Cytotoxicity against human MDA-MB-435 cells after 48 hrs by SRB assay; type: functional; outline: as §2
SK-MEL-2 = assay: Cytotoxicity against human SK-MEL-2 cells after 48 hrs by SRB assay; type: functional; outline: as §2
SK-MEL-28 = assay: Cytotoxicity against human SK-MEL-28 cells after 48 hrs by SRB assay; type: functional; outline: as §2
SK-MEL-5 = assay: Cytotoxicity against human SK-MEL-5 cells after 48 hrs by SRB assay; type: functional; outline: as §2
[4] = Cytotoxicity against human UACC257 cells after 48 hrs by SRB assay; type: functional, UACC-257; outline: as §3
[5] = Cytotoxicity against human UACC62 cells after 48 hrs by SRB assay; type: functional, UACC-62; outline: as §3
IGROV-1 = assay: Cytotoxicity against human IGROV1 cells after 48 hrs by SRB assay; type: functional; outline: as §1
[6] = Cytotoxicity against human OVCAR3 cells after 48 hrs by SRB assay; type: functional, OVCAR-3; outline: as §2
[7] = Cytotoxicity against human OVCAR4 cells after 48 hrs by SRB assay; type: functional, OVCAR-4; outline: as §2
[8] = Cytotoxicity against human OVCAR5 cells after 48 hrs by SRB assay; type: functional, OVCAR-5; outline: as §2
[9] = Cytotoxicity against human OVCAR8 cells after 48 hrs by SRB assay; type: functional, OVCAR-8; outline: as §2
[10] = Cytotoxicity against human NCI-ADR-RES cells after 48 hrs by SRB assay; type: functional; outline: as §2
SK-OV-3 = assay: Cytotoxicity against human SKOV3 cells after 48 hrs by SRB assay; type: functional; outline: as §2
786-0 = assay: Cytotoxicity against human 786-0 cells after 48 hrs by SRB assay; type: functional; outline: as §1
A498 = assay: Cytotoxicity against human A498 cells after 48 hrs by SRB assay; type: functional; outline: as §1
ACHN = assay: Cytotoxicity against human ACHN cells after 48 hrs by SRB assay; type: functional; outline: as §1
CAKI-1 = assay: Cytotoxicity against human Caki1 cells after 48 hrs by SRB assay; type: functional; outline: as §1
RXF 393 = assay: Cytotoxicity against human RXF393 cells after 48 hrs by SRB assay; type: functional; outline: as §2
SN12C = assay: Cytotoxicity against human SN12C cells after 48 hrs by SRB assay; type: functional; outline: as §2
TK-10 = assay: Cytotoxicity against human TK10 cells after 48 hrs by SRB assay; type: functional; outline: as §3
[11] = Cytotoxicity against human UO31 cells after 48 hrs by SRB assay; type: functional, UO-31; outline: as §3
PC-3 = assay: Cytotoxicity against human PC3 cells after 48 hrs by SRB assay; type: functional; outline: as §2
DU-145 = assay: Cytotoxicity against human DU145 cells after 48 hrs by SRB assay; type: functional; outline: as §1
MCF7 = assay: Cytotoxicity against human MCF7 cells after 48 hrs by SRB assay; type: functional; outline: as §1
MDA-MB-231 = assay: Cytotoxicity against human MDA-MB-231 cells after 48 hrs by SRB assay; type: functional; outline: as §2
[12] = Cytotoxicity against human Hs578T cells after 48 hrs by SRB assay; type: functional, Hs-578T; outline: as §1
BT-549 = assay: Cytotoxicity against human BT549 cells after 48 hrs by SRB assay; type: functional; outline: as §1
T47D = assay: Cytotoxicity against human T47D cells after 48 hrs by SRB assay; type: functional; outline: as §3
MDA-MB-468 = assay: Cytotoxicity against human MDA-MB-468 cells after 48 hrs by SRB assay; type: functional; outline: as §2
[13] = 1-Octanol-PBS partition coefficient, log P of the compound; type: physicochemical; details: octanol/water
[14] = Induction of apoptosis in human CLL cells after 24 hrs by Annexin/propidium iodide staining-based assay
[15] = Induction of apoptosis in human lymphocytes at 10 uM after 24 to 48 hrs by Annexin/propidium iodide staining-based assay; type: cell-based; details: lymphocyte
[16] = Induction of apoptosis in human lymphocytes after 24 hrs by Annexin/propidium iodide staining-based assay; details: lymphocyte
CCRF-CEM = assay: Cytotoxicity against human CCRF-CEM cells after 48 hrs by SRB assay; type: functional; outline: as §1
HL-60(TB) = assay: Cytotoxicity against human HL-60(TB) cells after 48 hrs by SRB assay; type: functional; outline: as §1
K562 = assay: Cytotoxicity against human K562 cells after 48 hrs by SRB assay; type: functional; outline: as §1
MOLT-4 = assay: Cytotoxicity against human MOLT4 cells after 48 hrs by SRB assay; type: functional; outline: as §2
RPMI-8226 = assay: Cytotoxicity against human RPMI8226 cells after 48 hrs by SRB assay; type: functional; outline: as §2
SR = assay: Cytotoxicity against human SR cells after 48 hrs by SRB assay; type: functional; outline: as §3
A549 = assay: Cytotoxicity against human A549 cells after 48 hrs by SRB assay; type: functional; outline: as §1
[17] = Cytotoxicity against human EKVX cells after 48 hrs by SRB assay; type: functional; outline: as §1

OB(O)c1ccc(N(CCCl)CCCl)cc1
Activity [1]: 92%
Activity [2]: 83%
GI50 (HOP-62): 8.48 µM
GI50 (HOP-92): 10.5 µM
GI50 (NCI-H226): 10.3 µM
GI50 (NCI-H23): 3.36 µM
GI50 (NCI-H322M): 15.1 µM
GI50 (NCI-H460): 0.23 µM
GI50 (NCI-H522): 3.53 µM
GI50 (COLO 205): 7.26 µM
GI50 (HCC 2998): 12.1 µM
GI50 (HCT-116): 9.37 µM
GI50 [3]: 9.46 µM
GI50 (HT-29): 11.9 µM
GI50 (KM12): 15.1 µM
GI50 (SW-620): 8.39 µM
GI50 (SF-268): 4.72 µM
GI50 (SF-295): 1.36 µM
GI50 (SF-539): 3.35 µM
GI50 (SNB-19): 8 µM
GI50 (SNB-75): 3.21 µM
GI50 (U-251): 3.49 µM
GI50 (LOX IMVI): 3.13 µM
GI50 (Malme-3M): 19.7 µM
GI50 (M14): 4.77 µM
GI50 (MDA-MB-435): 13 µM
GI50 (SK-MEL-2): 19 µM
GI50 (SK-MEL-28): 13.5 µM
GI50 (SK-MEL-5): 10.9 µM
GI50 [4]: 11.6 µM
GI50 [5]: 4.71 µM
GI50 (IGROV-1): 18.1 µM
GI50 [6]: 12 µM
GI50 [7]: 12.1 µM
GI50 [8]: 16 µM
GI50 [9]: 4.2 µM
GI50 [10]: 2.69 µM
GI50 (SK-OV-3): 3.81 µM
GI50 (786-0): 4.04 µM
GI50 (A498): 3.43 µM
GI50 (ACHN): 1.75 µM
GI50 (CAKI-1): 1.44 µM
GI50 (RXF 393): 2.55 µM
GI50 (SN12C): 2.08 µM
GI50 (TK-10): 15.5 µM
GI50 [11]: 6.05 µM
GI50 (PC-3): 15.1 µM
GI50 (DU-145): 4.89 µM
GI50 (MCF7): 1.89 µM
GI50 (MDA-MB-231): 16.6 µM
GI50 [12]: 31.4 µM
GI50 (BT-549): 6.63 µM
GI50 (T47D): 6.29 µM
GI50 (MDA-MB-468): 0.51 µM
logP [13]: 2.5
IC50 [14]: 4.8 µM
Activity [15]: Toxic
Activity [16]: Dose-dependent effect
GI50 (CCRF-CEM): 3.27 µM
GI50 (HL-60(TB)): 2.88 µM
GI50 (K562): 15.8 µM
GI50 (MOLT-4): 2.9 µM
GI50 (RPMI-8226): 8.59 µM
GI50 (SR): 0.48 µM
GI50 (A549): 0.89 µM
GI50 [17]: 15.4 µM
